Results on one substance are retold here after US11224222B2, “Synergistic compositions of dehydroacetic acid and methods for reducing yellowing in various end-user compositions” (ISP Investments LLC, priority 2015, dated 2022).

The data set can be described thus: Solubility of DHA in aprotic and protic solvents. Particulars: DHA in the named aprotic solvent (Table 8). An excerpt:
In order to choose the suitable solvent for preparing non-yellowing DHA composition, the different possible protic, aprotic solvents were selected and evaluated individually and also as their suitable mixture.
In case of aprotic solvents, it was selected based on its compatibility with other ingredients present in the end-user products. Further, the regulatory requirement was also considered as an important element in choosing preferred aprotic solvent for preparing non-yellowing/reduced-yellowing DHA composition of the present application. The high content of DHA can be introduced in the solvent by dispersing or dissolving the DHA in their corresponding aprotic solvents. […] The various solvents selected are disclosed in Table 8.
Further, the applicants have evaluated various protic solvents to understand their ability to render non-yellowing/reduced-yellowing DHA composition for employing in various end-user products that are aqueous in nature.

In the case of Ethlyene carbonate, the “% of DHA soluble” value was “None”.
